Measurements reported in patent publication US9726669B2, “Biomarkers for determining sensitivity of breast cancer cells to HER2-targeted therapy” (PIERIAN HOLDINGS, INC., priority 2009, dated 2017).
Entries after “also recorded” stand apart in the source; their conditions may differ.

What was measured:
BT474 cells = assay: ErbB pathway activation/expression in Herceptin-sensitive BT474 cells, multiplexed proximity immuno-microarray and Western blot; format: cell-based, human
BT/R cells [1] = assay: ErbB pathway activation/expression in Herceptin-resistant BT/R cells, multiplexed proximity immuno-microarray and Western blot; format: cell-based, human
BT/R cells [2] = assay: Cell growth of Herceptin-resistant BT/R cells; format: cell-based, human
Description: The cells were lysed and the protein concentration determined by BCA protein assay.

p95HER2 = conditions: Xia 2004; cited from earlier work
HER2-positive BCA = conditions: trastuzumab-complemented treatments; Nahta and Esteva 2006; cited from earlier work
[3] = BT474 cells with Herceptin treatment
[4] = BT/R cells with Herceptin treatment
[5] = BT/R compared to BT474 cells upon Herceptin treatment

Substance: trastuzumab [Herceptin]
- HER1/2 dimer (BT474 cells; [3]): downregulated
- HER2/2 dimer (BT474 cells; [3]): downregulated
- HER2/3 dimer (BT474 cells; [3]): downregulated
- p95/HER3 levels (BT474 cells; [3]): no change
- phospho-HER3 (BT474 cells; [3]): reduction; also recorded: reduced
- phospho-SHC (BT474 cells; [3]): reduction
- total HER2 levels (BT474 cells; BT474 cells, Herceptin treatment vs without Herceptin): moderate decrease; also recorded: decreased
- phosphorylation of HER2 (BT474 cells; BT474 cells, Herceptin treatment vs without Herceptin, 100 μg/ml, 2, 8, 24 hours): significant inhibition and inhibition and reduced and not
- level of activation of truncated HER2 (phosphorylated p95HER2) (BT474 cells; sensitive (BT474) cells treated with Herceptin for different times): not
- expression of total p95HER2 (BT474 cells; sensitive BT474 cells treated with Herceptin): decreased
- phosphorylation (activation) of full length HER2 (BT/R cells [1]; BT/R cells treated with Herceptin): does not inhibit; also recorded: increases
- HER1/2 dimer (BT/R cells [1]; [4]): downregulated
- HER2/3 dimer (BT/R cells [1]; [4]): downregulated
- p95/HER3 dimer (BT/R cells [1]; [4]): increased and then stabilized
- phospho-HER3 (BT/R cells [1]; [4]): reduction
- phospho-SHC (BT/R cells [1]; [4]): reduction
- total HER2 levels (BT/R cells [1]; BT/R cells, Herceptin treatment vs without Herceptin): moderate decrease; also recorded: decreased
- activation (phosphorylation) of p95HER2, resistant vs sensitive cells (BT/R cells [1]; [5]): significantly higher activation; also recorded: significant difference; also recorded: significantly higher phosphorylation
- activation of HER2, resistant vs sensitive cells (BT/R cells [1]; [5]): significantly higher activation; also recorded: increased activation
- activation of HER3, resistant vs sensitive cells (BT/R cells [1]; [5]): Increased activation; also recorded: higher in resistant cells at early time points
- activation of PI3K, resistant vs sensitive cells (BT/R cells [1]; [5]): increased activation; also recorded: higher in resistant cells at early time points; also recorded: significantly higher activation
- p95HER2-mediated pathway activation, resistant vs sensitive cell population (BT/R cells [1]; Herceptin-resistant BT474 cells vs Herceptin-sensitive cells when treated with Herceptin): approximately 5 fold
- HER1 activation (BT/R cells [1]; Herceptin-resistant cell population when treated with Herceptin): weak
- level of activation of truncated HER2 (phosphorylated p95HER2) (BT/R cells [1]; resistant (BT/R) cells treated with Herceptin for different times): increases
- expression of total p95HER2 (BT/R cells [1]; resistant cells treated with Herceptin): decreased
- cell growth (BT/R cells [2]): does not inhibit
- activation of p95 (p95HER2): not inhibited
- HER2-positive patients initially responding (HER2-positive BCA): approximately 50%
